Assay results reported in PubChem BioAssay AID743261 (The Scripps Research Institute Molecular Screening Center, 2014).
Only a part is listed here, and it is no random draw. Activity calls are given as the source filed them. Rule as the data show it: active = inhibition above about 11%; inactive = the rest.

By UniProt entry, the sequences of proteins in these tests, tags left out.
UniProt Q01970, whole entry: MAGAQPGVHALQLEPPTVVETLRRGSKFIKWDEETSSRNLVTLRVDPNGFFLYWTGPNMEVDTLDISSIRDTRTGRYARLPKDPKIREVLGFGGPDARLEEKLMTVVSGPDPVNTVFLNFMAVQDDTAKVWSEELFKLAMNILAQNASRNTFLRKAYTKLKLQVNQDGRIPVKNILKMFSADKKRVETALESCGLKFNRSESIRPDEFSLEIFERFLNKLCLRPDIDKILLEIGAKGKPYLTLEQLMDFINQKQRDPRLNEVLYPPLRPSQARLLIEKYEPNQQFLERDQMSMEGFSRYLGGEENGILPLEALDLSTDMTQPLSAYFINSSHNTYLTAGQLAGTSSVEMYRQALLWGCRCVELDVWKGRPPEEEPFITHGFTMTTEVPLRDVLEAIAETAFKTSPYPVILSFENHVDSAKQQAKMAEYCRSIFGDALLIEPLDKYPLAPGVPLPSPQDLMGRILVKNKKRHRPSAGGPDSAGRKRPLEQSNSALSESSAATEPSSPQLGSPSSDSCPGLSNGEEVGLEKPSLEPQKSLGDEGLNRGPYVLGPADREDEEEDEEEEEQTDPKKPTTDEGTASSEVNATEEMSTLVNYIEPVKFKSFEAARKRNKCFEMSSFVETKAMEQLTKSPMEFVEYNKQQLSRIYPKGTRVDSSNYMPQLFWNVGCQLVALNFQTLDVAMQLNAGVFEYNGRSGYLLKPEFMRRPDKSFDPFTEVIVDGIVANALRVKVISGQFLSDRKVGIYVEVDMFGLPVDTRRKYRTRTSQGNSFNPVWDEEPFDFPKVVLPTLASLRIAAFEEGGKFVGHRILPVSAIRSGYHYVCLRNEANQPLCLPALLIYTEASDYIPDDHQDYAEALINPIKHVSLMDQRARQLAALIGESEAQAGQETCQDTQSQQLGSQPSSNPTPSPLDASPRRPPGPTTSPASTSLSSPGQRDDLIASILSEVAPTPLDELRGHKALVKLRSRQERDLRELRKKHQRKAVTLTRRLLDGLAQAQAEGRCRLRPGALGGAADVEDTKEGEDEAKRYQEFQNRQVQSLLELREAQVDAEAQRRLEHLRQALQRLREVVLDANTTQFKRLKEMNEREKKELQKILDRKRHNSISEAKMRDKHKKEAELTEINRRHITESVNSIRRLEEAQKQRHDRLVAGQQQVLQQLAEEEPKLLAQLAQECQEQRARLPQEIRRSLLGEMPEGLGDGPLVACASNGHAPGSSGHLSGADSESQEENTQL

These molecules were tested against 1-phosphatidylinositol 4,5-bisphosphate phosphodiesterase beta-3 (Homo sapiens) (UniProt Q01970) (assay: PLC-beta3 inhibitor confirmation, biochemical, fluorescence, purified enzyme (AID 743261)). Conditions: purified PLC-beta3, fluorogenic substrate fluorescence; at 12.3 µM; active compounds read high.

Compound	inhibition
CCC(c1nnnn1C1CCCCC1)N1CCC(n2c(=O)[nH]c3ccccc32)CC1 (stereo unspecified)	inactive: 2.89%
